Biological target: T1, RDLbd (Drosophila melanogaster, UniProt P25123)
T1 sequence (P25123 45-606): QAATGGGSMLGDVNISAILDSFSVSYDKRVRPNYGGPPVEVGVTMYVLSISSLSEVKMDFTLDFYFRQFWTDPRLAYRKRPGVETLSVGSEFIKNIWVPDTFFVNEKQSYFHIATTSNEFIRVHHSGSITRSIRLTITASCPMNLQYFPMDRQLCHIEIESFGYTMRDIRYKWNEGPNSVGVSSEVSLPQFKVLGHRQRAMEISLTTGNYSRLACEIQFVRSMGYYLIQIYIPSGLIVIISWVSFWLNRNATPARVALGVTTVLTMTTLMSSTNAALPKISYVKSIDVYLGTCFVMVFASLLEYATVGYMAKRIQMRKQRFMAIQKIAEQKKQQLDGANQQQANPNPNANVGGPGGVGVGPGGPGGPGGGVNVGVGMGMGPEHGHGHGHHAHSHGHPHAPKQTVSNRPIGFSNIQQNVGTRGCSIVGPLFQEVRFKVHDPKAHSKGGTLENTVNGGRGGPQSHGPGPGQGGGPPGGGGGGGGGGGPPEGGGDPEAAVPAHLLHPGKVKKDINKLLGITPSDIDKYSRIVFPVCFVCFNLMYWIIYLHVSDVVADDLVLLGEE
Format: cell-based

CC[C@H](C)[C@H]1O[C@]2(CC[C@@H]1C)C[C@@H]1C[C@@H](C/C=C(\C)[C@@H](O[C@H]3C[C@H](OC)[C@@H](O[C@H]4C[C@H](OC)[C@@H](O)[C@H](C)O4)[C@H](C)O3)[C@@H](C)/C=C/C=C3\CO[C@@H]4[C@H](O)C(C)=C[C@@H](C(=O)O1)[C@]34O)O2 [IVM, ivermectin]
response when applied alone: no response

— article PMC4019635 (PLoS ONE, 2014)
